## CycPeptMPDB entries from one study

Collected by the curators of CycPeptMPDB (Li et al. 2023) from Kelly et al. 2021, doi:10.1021/jacs.0c06115.

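Conditions beyond the assay type are not listed; see the original paper. The list need not hold all peptides of the study. Peptides that the database sets to -10, its floor, are left out.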

PAMPA measures passive passage through an artificial lipid membrane.
Permeability is in 10^-6 cm/s, converted from the database's log10 values; higher is more permeable.

structure (SMILES) | PAMPA (10^-6 cm/s)
CC(=O)N1CCC[C@@H]1C(=O)N(C)[C@@H](CC(C)C)C(=O)N[C@@H]1C(=O)N(C)[C@@H](CC(C)C)C(=O)N[C@H](CC(C)C)C(=O)N(C)[C@@H](CC(C)C)C(=O)N(C)[C@@H](C)C(=O)N[C@@H](CC(C)C)C(=O)N2CCC[C@@H]2C(=O)O[C@@H]1C | 2.2
CC(=O)N1CCC[C@H]1C(=O)N(C)[C@@H](CC(C)C)C(=O)N[C@@H]1C(=O)N[C@H](CC(C)C)C(=O)N(C)[C@@H](CC(C)C)C(=O)N(C)[C@H](CC(C)C)C(=O)N[C@H](C)C(=O)N[C@H](CC(C)C)C(=O)N2CCC[C@@H]2C(=O)O[C@@H]1C | 0.89
CC(=O)N1CCC[C@@H]1C(=O)N(C)[C@H](CC(C)C)C(=O)N[C@@H]1C(=O)N(C)[C@@H](CC(C)C)C(=O)N[C@@H](CC(C)C)C(=O)N(C)[C@H](CC(C)C)C(=O)N(C)[C@@H](C)C(=O)N[C@@H](CC(C)C)C(=O)N2CCC[C@@H]2C(=O)O[C@@H]1C | 3.9
CC(=O)N[C@@H]1C(=O)N2CCC[C@H]2C(=O)N(C)[C@H](CC(C)C)C(=O)N(C)[C@H](CC(C)C)C(=O)N(C)[C@H](CC(C)C)C(=O)N(C)[C@H](CC(C)C)C(=O)N(C)[C@H](C)C(=O)N[C@@H](CC(C)C)C(=O)N2CCC[C@@H]2C(=O)O[C@@H]1C | 7.9
CC(=O)N1CCC[C@H]1C(=O)N(C)[C@H](CC(C)C)C(=O)N[C@@H]1C(=O)N(C)[C@H](CC(C)C)C(=O)N(C)[C@@H](CC(C)C)C(=O)N[C@@H](CC(C)C)C(=O)N(C)[C@@H](C)C(=O)N[C@H](CC(C)C)C(=O)N2CCC[C@@H]2C(=O)O[C@@H]1C | 7.2
CC(=O)N1CCC[C@H]1C(=O)N(C)[C@@H](CC(C)C)C(=O)N[C@@H]1C(=O)N[C@H](CC(C)C)C(=O)N[C@@H](CC(C)C)C(=O)N[C@@H](CC(C)C)C(=O)N(C)[C@H](C)C(=O)N[C@H](CC(C)C)C(=O)N2CCC[C@@H]2C(=O)O[C@@H]1C | 1.4
CC(=O)N1CCC[C@H]1C(=O)N(C)[C@H](CC(C)C)C(=O)N[C@@H]1C(=O)N[C@@H](CC(C)C)C(=O)N[C@H](CC(C)C)C(=O)N[C@@H](CC(C)C)C(=O)N[C@@H](C)C(=O)N[C@@H](CC(C)C)C(=O)N2CCC[C@H]2C(=O)O[C@@H]1C | 0.055
CC(=O)N1CCC[C@H]1C(=O)N[C@@H]1C(=O)N[C@H](CC(C)C)C(=O)N[C@@H](CC(C)C)C(=O)N[C@@H](CC(C)C)C(=O)N(C)[C@@H](CC(C)C)C(=O)N[C@@H](C)C(=O)N[C@@H](CC(C)C)C(=O)N2CCC[C@@H]2C(=O)O[C@@H]1C | 1.5
CC(=O)N1CCC[C@@H]1C(=O)N(C)[C@@H](CC(C)C)C(=O)N[C@@H]1C(=O)N[C@@H](CC(C)C)C(=O)N(C)[C@H](CC(C)C)C(=O)N(C)[C@H](CC(C)C)C(=O)N(C)[C@H](C)C(=O)N[C@@H](CC(C)C)C(=O)N2CCC[C@H]2C(=O)O[C@@H]1C | 1.3
CC(=O)N1CCC[C@@H]1C(=O)N(C)[C@@H](CC(C)C)C(=O)N[C@@H]1C(=O)N[C@H](CC(C)C)C(=O)N(C)[C@H](CC(C)C)C(=O)N[C@H](CC(C)C)C(=O)N(C)[C@H](C)C(=O)N[C@@H](CC(C)C)C(=O)N2CCC[C@@H]2C(=O)O[C@@H]1C | 8.5
CC(=O)N1CCC[C@H]1C(=O)N[C@@H]1C(=O)N[C@H](CC(C)C)C(=O)N[C@H](CC(C)C)C(=O)N[C@@H](CC(C)C)C(=O)N[C@@H](CC(C)C)C(=O)N[C@H](C)C(=O)N[C@@H](CC(C)C)C(=O)N2CCC[C@@H]2C(=O)O[C@@H]1C | 0.26
CC(=O)N1CCC[C@@H]1C(=O)N(C)[C@@H](CC(C)C)C(=O)N[C@@H]1C(=O)N[C@H](CC(C)C)C(=O)N[C@@H](CC(C)C)C(=O)N(C)[C@@H](CC(C)C)C(=O)N[C@@H](C)C(=O)N[C@H](CC(C)C)C(=O)N2CCC[C@H]2C(=O)O[C@@H]1C | 0.78
CC(=O)N1CCC[C@H]1C(=O)N(C)[C@@H](CC(C)C)C(=O)N[C@@H]1C(=O)N[C@@H](CC(C)C)C(=O)N(C)[C@H](CC(C)C)C(=O)N[C@H](CC(C)C)C(=O)N(C)[C@H](C)C(=O)N[C@@H](CC(C)C)C(=O)N2CCC[C@@H]2C(=O)O[C@@H]1C | 6.8
CC(=O)N1CCC[C@H]1C(=O)N(C)[C@@H](CC(C)C)C(=O)N[C@@H]1C(=O)N(C)[C@@H](CC(C)C)C(=O)N[C@@H](CC(C)C)C(=O)N[C@@H](CC(C)C)C(=O)N[C@@H](C)C(=O)N[C@H](CC(C)C)C(=O)N2CCC[C@@H]2C(=O)O[C@@H]1C | 0.001
CC(=O)N1CCC[C@@H]1C(=O)N(C)[C@@H](CC(C)C)C(=O)N[C@@H]1C(=O)N[C@@H](CC(C)C)C(=O)N[C@@H](CC(C)C)C(=O)N(C)[C@@H](CC(C)C)C(=O)N(C)[C@@H](C)C(=O)N[C@H](CC(C)C)C(=O)N2CCC[C@@H]2C(=O)O[C@@H]1C | 1.9
CC(=O)N[C@@H]1C(=O)N2CCC[C@H]2C(=O)N(C)[C@H](CC(C)C)C(=O)N[C@@H](CC(C)C)C(=O)N[C@H](CC(C)C)C(=O)N[C@H](CC(C)C)C(=O)N[C@H](C)C(=O)N[C@@H](CC(C)C)C(=O)N2CCC[C@@H]2C(=O)O[C@@H]1C | 0.048
CC(=O)N1CCC[C@H]1C(=O)N[C@@H]1C(=O)N[C@H](CC(C)C)C(=O)N(C)[C@H](CC(C)C)C(=O)N(C)[C@H](CC(C)C)C(=O)N[C@@H](CC(C)C)C(=O)N(C)[C@H](C)C(=O)N[C@@H](CC(C)C)C(=O)N2CCC[C@@H]2C(=O)O[C@@H]1C | 2.1
CC(=O)N1CCC[C@H]1C(=O)N(C)[C@@H](CC(C)C)C(=O)N[C@@H]1C(=O)N(C)[C@@H](CC(C)C)C(=O)N(C)[C@@H](CC(C)C)C(=O)N[C@H](CC(C)C)C(=O)N(C)[C@H](C)C(=O)N[C@H](CC(C)C)C(=O)N2CCC[C@@H]2C(=O)O[C@@H]1C | 0.91